# Binding of CDR-mutated scFvs to a peptide of the spike HR2 region

Values reported by Li et al. 2023, doi:10.1038/s41467-023-39022-2 (FLAb copy).

All variants were tested on one target, the spike HR2 peptide PDVDLGDISGINAS (SARS-CoV-2).

Each scFv is VH, a (GGGGS)3 linker, VL, as in the parent Ab-14, and differs from it in the CDRs of the heavy chain only.
VH: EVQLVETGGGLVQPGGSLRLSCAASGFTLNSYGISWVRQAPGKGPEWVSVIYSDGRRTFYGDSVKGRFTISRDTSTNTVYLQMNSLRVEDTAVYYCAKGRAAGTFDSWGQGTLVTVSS
VL: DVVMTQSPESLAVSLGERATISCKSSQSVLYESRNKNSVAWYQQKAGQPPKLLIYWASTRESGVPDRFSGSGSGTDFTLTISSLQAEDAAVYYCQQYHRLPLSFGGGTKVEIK

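Phage display of a naive human antibody library on the peptide gave the parent. Designed CDR sequences, proposed from the first random library and measured here. Group labels follow the data file (Ctrl: baseline library sampled from a position-specific scoring matrix, with some repeated check sequences; Rand: our label for a block that the file lists under HC and that is probably the random mutants of the ten best first-round binders; GP: Gaussian process model; GPLM: also part of the Gaussian process libraries; HC: hill climbing; Gen: genetic algorithm; Gibbs: Gibbs sampling; a sequence that several methods proposed may carry one label only). Affinity was read by AlphaSeq, a pooled yeast mating assay with surface-displayed partners. Binding brings cells together so that they mate, and sequencing counts the barcode pairs among the diploids. A regression on co-assayed BCL2-family reference pairs converts the normalised counts of each replicate to an apparent Kd. The assay was run in six technical replicates.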

The parent's heavy chain CDRs are GFTLNSYGIS, VIYSDGRRTFYGDSVK, GRAAGTFDS; each variant's own CDRs replace them letter for letter. Variants here have at most six changes. The read-out is the apparent dissociation constant on a log10 scale (nM): the lower, the stronger. The mean shown is taken over the replicates in which the pair was detected. "nd" marks a missing value. The strain was present, yet no cells mated with the target were sequenced in any replicate, which points to weak or no binding. The list is sorted by this average, lowest first, undetected variants last.

Variant GFPLNMYGIS | VIYADGRRTFYGDSVK | GEAAGTFDS [GP_HC] showed -0.06 (6 of 6 replicates).
Variant GFTLNEYGIS | VIYSDGRRTFYGDSVK | GRVAGTFDA [GP_HC] showed 0.33 (6 of 6 replicates).
Variant GFTLNSYGIS | VIYADGRRTFYLDSVK | GRAAGTFDL [Ctrl] showed 0.34 (6 of 6 replicates).
Variant GFQLNEYGIS | VIYSDGRRTFYQDSVK | GQAAGTFDK [GP_Gibbs] showed 0.38 (6 of 6 replicates).
Variant GKTLNSYGIS | VIYADGRRTFYSDSVK | GRAAGTFDS [GP_HC] showed 0.41 (6 of 6 replicates).
Variant GFTLESYGIS | VIYADGRRTFYGDNVK | GRAAGTFDS [GP_HC] showed 0.46 (6 of 6 replicates).
Variant GFTLNEYGIS | VIYSDGRRTFYTDAVK | GKFAGTFDS [GP_HC] showed 0.69 (6 of 6 replicates).
Variant GFSLNSYGIS | VIYSDGKRTFYGDSVK | GNAAGTFDN [GP_Gibbs] showed 0.70 (6 of 6 replicates).
Variant GFKLNSYGIS | VIYSDGRRTFYHDSVK | GRTAGTFDS [GPLM_Gen] showed 0.74 (5 of 6 replicates).
Variant GFTLNEYGIS | VIYSDGRRTFYGDSVK | GRFAGTFDR [GP_HC] showed 0.76 (6 of 6 replicates).
Variant GFSLNSYGIS | VIYSDGRRTFYGDSVK | GQAAGTFDM [GPLM_Gen] showed 0.88 (3 of 6 replicates).
Variant KFTLNEYGIS | VIYSDGRRTFYTDSVK | GRHAGTFDS [GP_HC] showed 0.88 (1 of 6 replicates).
Variant GFSLNEYGIS | VIYSDGRRTFYGDHVK | GRTAGTFDA [GP_Gibbs] showed 1.04 (6 of 6 replicates).
Variant GFNLNSYGIS | VIYSDGRRTFYKDSVK | GMTAGTFDS [GP_Gibbs] showed 1.12 (6 of 6 replicates).
Variant GFTLNMYGIS | VIYSDGRRTFYGDSVK | GRASGTSDS [Ctrl] showed 1.16 (2 of 6 replicates).
Variant GFTLNQYGIS | VIYSDGRRTFYGDDVR | GRAAGTFDS [Ctrl] showed 1.31 (2 of 6 replicates).
Variant GFSLNSYGIS | VIYSDGRRTFYHDRVK | GEAAGTFDS [GP_Gibbs] showed 1.35 (3 of 6 replicates).
Variant GFTLESYGIS | VIYSDGRRTFYQDSVK | GKAAGTFDS [GP_Gen] showed 1.41 (5 of 6 replicates).
Variant GFCLNDYGIS | VIYSDGRRTFYADSVK | GRAAGTFDT [GP_HC] showed 1.47 (6 of 6 replicates).
Variant GFSLNSYGIS | VIYSDGRRTFYGDSVK | GWEAGTFDS [GP_Gen] showed 1.58 (4 of 6 replicates).
Variant DFTLNSYGIS | VIYSDGRRTFYSDSVK | GDAAGTFDS [Ctrl] showed 1.77 (5 of 6 replicates).
Variant GFTLNSYGIS | VIYSDGKRTFYIDSVK | GQAAGTFDT [GPLM_Gibbs] showed 1.99 (3 of 6 replicates).
Variant GFTLNEYGIS | VIYSDGKRTFYGDSVK | GRTAGTFIS [GPLM_HC] showed 2.32 (1 of 6 replicates).
Variant GFSLNEYGIS | VIYSDGRRTFYSDSVK | GRAAVTFDS [GPLM_HC] showed nd (0 of 6 replicates).
Variant GFHLNSYGIS | VIYSDGRRTFYGDSVK | GRAAGTFWS [Ctrl] showed nd (0 of 6 replicates).
Variant GFTLNSYGIS | VIYSDGRRTFYGDKVK | GRAAGTPDS [Ctrl] showed nd (0 of 6 replicates).
Variant GFTFNSYGIS | VIYSDGRRTSYDISVK | GQLAGTFDS [Rand] showed nd (0 of 6 replicates).
Variant GFTLNSYGIS | VIYSDGRRTYYGDSVK | TRDAGTFLS [Ctrl] showed nd (0 of 6 replicates).
Variant GCTLNQYGIS | VIYSDGRRTFYGDSVK | GRAAGTGDS [Ctrl] showed nd (0 of 6 replicates).
Variant GFSLNSYGIS | VIYSDGRRTFYGDSVK | GKSAGTFDS [GPLM_Gen] showed nd (0 of 6 replicates).
Variant GFQLNSYGIS | VIYSDGRRTFYGDQVK | GRAAGTFDS [GP_HC] showed nd (0 of 6 replicates).
Variant GFTLNEYGIS | VIYSDGRRTFYGDSVK | GRCAGTFDS [GPLM_Gen] showed nd (0 of 6 replicates).
Variant GFTLNSYGIS | VIYSDGRRTFYGDSVR | GDATGAFDS [Ctrl] showed nd (0 of 6 replicates).
Variant GFTLNSYGIS | VIYSDGRRTFYGDKVK | GRAAKTFDQ [Ctrl] showed nd (0 of 6 replicates).
Variant GFTLNSYGIS | VIYSDGFRTFYGDSVK | GRTAGTFDS [Ctrl] showed nd (0 of 6 replicates).

The authors averaged sequences with at least three values out of six and counted those with two or fewer as poor binders. Of ten entries with the parent sequence, four were seen in most replicates (averages 0.34 to 2.37), three in one and three in none, so single entries are noisy. Empty control strains, which show no peptide, gave a signal in 1% of pairings with all heavy chain designs; the median was 2.08 and 95% of these signals were weaker than 0.84. No background was subtracted. The range of this assay differs from that of the first round, and the authors advise against merging the two.